Values of other authors as cited in patent US9149455B2, “Methods of treating melanoma” (Abraxis BioScience, LLC, priority 2012, dated 2015).

Tested on: metastatic melanoma
Conditions: literature; cited from earlier work

## HD IL-2: high dose interleukin 2, FDA-approved therapy for metastatic melanoma
  effect on median overall survival: neither of which increased median overall survival
